We go through one molecule from US20160030407A1, “Method of Treating Inflammatory Lung Disease” (priority 2010, published 2016).

Protein sequences, listed by entry. Tags and fused reporters are not part of them. Residues count along the entry.
UniProt P17787, 26-502: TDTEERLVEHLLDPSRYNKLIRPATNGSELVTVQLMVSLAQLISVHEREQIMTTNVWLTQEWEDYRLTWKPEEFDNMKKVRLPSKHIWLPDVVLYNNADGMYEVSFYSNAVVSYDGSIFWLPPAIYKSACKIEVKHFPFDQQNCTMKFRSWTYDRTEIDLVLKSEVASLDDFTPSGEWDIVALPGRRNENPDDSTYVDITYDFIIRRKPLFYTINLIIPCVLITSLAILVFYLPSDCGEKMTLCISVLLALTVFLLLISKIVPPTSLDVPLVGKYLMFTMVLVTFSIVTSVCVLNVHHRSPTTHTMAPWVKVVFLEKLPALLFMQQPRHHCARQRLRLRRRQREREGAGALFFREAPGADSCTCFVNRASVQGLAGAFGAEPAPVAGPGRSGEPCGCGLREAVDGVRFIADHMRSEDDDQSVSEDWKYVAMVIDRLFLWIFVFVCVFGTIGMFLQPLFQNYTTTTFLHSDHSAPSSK
UniProt P43681, 29-627: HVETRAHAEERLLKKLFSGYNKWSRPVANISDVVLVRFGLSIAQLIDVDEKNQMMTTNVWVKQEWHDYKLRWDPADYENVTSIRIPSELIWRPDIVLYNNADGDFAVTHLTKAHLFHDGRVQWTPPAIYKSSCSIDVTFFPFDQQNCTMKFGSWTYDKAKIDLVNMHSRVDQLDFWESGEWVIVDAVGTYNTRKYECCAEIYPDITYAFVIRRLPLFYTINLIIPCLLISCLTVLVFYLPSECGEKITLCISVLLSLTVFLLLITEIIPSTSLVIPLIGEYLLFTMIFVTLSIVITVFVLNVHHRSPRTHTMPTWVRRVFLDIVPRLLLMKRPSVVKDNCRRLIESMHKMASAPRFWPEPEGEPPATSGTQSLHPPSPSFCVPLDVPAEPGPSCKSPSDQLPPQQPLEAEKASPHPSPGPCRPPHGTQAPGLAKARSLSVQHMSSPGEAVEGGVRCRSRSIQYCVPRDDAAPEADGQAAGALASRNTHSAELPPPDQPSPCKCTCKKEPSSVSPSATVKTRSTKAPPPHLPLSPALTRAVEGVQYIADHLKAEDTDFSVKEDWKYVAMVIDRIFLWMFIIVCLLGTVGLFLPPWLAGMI

The assay has as its target T1, nAChR α4/β2 (Homo sapiens, UniProt P17787+P43681).
T1 construct: host or cells: HEK293 cells, transient
Nature of the assay: cell-based. The conditions noted are these: read-out: Normalized % Inhibition. As to the method:
Briefly, cells were incubated with […] dye for 30 min at 37° C.

In general, inhibition refers to the drop in the measured response relative to a control, in per cent.

`CN1CCCC1c1cccnc1.O=C(O)C(O)C(O)C(=O)O` (single isomer, unassigned; (-)) [Nicotine, (−) Nicotine hydrogen tartrate]: the inhibition at 1 µM came out at 107%.
